Assay results: ChEMBL document CHEMBL1127274, “Evaluation of (2S,4S)/(2R,4R) and (2S,4R)/(2R,4S) 6,6-N,N-dimethyl-2-methyl-2-oxo-1,3-dioxa-4-hexadecyl-6,aza-2-phosphacyclooctane bromide as inhibitors for protein kinase C, carnitine octanoyltransferase, and carnitine palmitoyltransferase” (Bioorg Med Chem Lett, 1994)

Assay: Inhibition of mouse Protein Kinase C alpha and beta-2

| SMILES | IC50 [µM] |
| --- | --- |
| CCCCCCCCCCCCCCCCC1C[N+](C)(C)CCO[P@](C)(=O)O1 (some centres not stated) | 4.8 |
| CCCCCCCCCCCCCCCCC1C[N+](C)(C)CCO[P@@](C)(=O)O1 (some centres not stated) | 9.9 |
